Two compounds from article PMC9619402 (Journal of Medicinal Chemistry, 2022) can be followed below.

Sequences of proteins named here, by UniProt entry; tags and fusion partners are left off. Residues count along the entry.
UniProt P53667, 330-637: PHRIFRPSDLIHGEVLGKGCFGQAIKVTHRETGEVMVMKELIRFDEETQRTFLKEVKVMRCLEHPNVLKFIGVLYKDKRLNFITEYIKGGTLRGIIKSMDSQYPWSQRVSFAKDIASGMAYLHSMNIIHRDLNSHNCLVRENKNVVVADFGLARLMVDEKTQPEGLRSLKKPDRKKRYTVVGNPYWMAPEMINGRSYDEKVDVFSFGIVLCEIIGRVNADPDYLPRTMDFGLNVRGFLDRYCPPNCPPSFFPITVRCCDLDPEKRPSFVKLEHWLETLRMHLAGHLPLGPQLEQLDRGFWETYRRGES
UniProt P53671, 326-638 limits assumed: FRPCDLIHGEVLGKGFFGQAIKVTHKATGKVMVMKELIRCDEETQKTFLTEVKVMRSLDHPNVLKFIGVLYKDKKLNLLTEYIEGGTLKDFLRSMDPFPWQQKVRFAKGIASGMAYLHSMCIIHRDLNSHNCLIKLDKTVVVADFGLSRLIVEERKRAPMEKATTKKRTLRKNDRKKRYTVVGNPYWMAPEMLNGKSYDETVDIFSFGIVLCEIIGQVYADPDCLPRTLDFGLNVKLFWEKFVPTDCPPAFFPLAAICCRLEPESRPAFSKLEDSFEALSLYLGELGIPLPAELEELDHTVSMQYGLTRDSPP

Experiment [1] concerns the target PAK pLIMK1 (PAK-phosphorylated LIMK1) (Homo sapiens, UniProt P53667). The experiment is described as follows: RapidFire mass spectrometry kinase assay, PAK-phosphorylated LIMK1. Conditions: 5 nM LIMK1 + 0.4 nM PAK1 kinase domain; mean ± SEM.
Experiment [2] concerns p-cofilin levels in SH-SY5Y cells. Kind of experiment: cells. Conditions: Homo sapiens, 2 h, read-out: AlphaLISA pIC50 p-cofilin (converted). Here is the method: SH-SY5Y cells were plated into a 96-well plate at 20,000 cells/well. The next day, compounds were prepared in an 8-point, 3-fold serial dilution in DMSO and then further diluted to 20-fold in DMEM/F12 with 10% FBS, 1% antibiotics. SH-SY5Y cell media was replaced with fresh DMEM/F12 media containing 10% FBS and 1% antibiotics. Compounds were added to the SH-SY5Y cells in duplicate at a final compound concentration of 10 μM to 3 nM. LIMKi3 (10 μM) was used as a positive control and 0.5% DMSO was used as a negative control. Cells were placed in the incubator for 2 h, after which the media was removed, and the cells were lysed using 50 μL of AlphaLISA 1× lysis buffer (Perkin Elmer) containing protease inhibitor cocktail (Sigma-Aldrich, Dorset, U.K.) and Pierce phosphatase inhibitor cocktail (Thermofisher, U.K.). Cells were placed on a plate shaker at 350 rpm at RT. Ten microliters of total cell lysate was then transferred to a clean, flat-bottom, white 384-well plate. An acceptor bead solution was made consisting of reaction buffer 1, reaction buffer 2, activation buffer, and acceptor beads from the p-Cofilin SureFire Ultra assay kit (Perkin Elmer, Cat# ALSU-PCOF-A500). […] Finally, the plate was read on a Pherastar reader (BMG Labtech Ltd., Aylesbury, U.K.) using an AlphaLISA cartridge and AlphaLISA plate settings.

In experiment [3] the target is T1, LIMK1 (NanoLuc LIMK1 kinase fusion) (Homo sapiens, UniProt P53667).
T1 construct: host or cells: HEK293
It is filed as cell-based. The conditions noted are these: HEK293 cells, 2 h; mean ± SEM. As to the method: (§1) HEK293 cells were resuspended in growth media following routine trypsinization, neutralization, and sedimentation techniques. Cell density was adjusted to 1 ×10^5 cells/mL for each transfection in a total of 25 mL media. The transfection mix was added directly to the cells and mixed gently by inversion. The cells were then plated into T-75 tissue culture flasks and incubated for 20 h.
(§2) Kit components were purchased from Promega (Hampshire, U.K.). […] NanoBRET Tracer #10 (27.5 μL) was diluted in 192.5 μL of DMSO for use as a positive control, which was further diluted with 880 μL of tracer dilution buffer. For negative control, 20 μL of DMSO was added to 80 μL of tracer dilution buffer. LIMK1/2-transfected HEK293 cells were trypsinized, centrifuged, and resuspended in 10 mL of Opti-MEM. Extracellular NanoLuc inhibitor was added at 1:10,000 dilution to the cells, after which 85 μL of cells/well were plated into flat-bottomed, white, 96-well plates. For positive control wells, 5 μL of NanoBRET Tracer #10 was added to wells without compound. For negative controls, the DMSO/tracer dilution buffer solution was added to wells without compound. For test compounds, 10 μL of diluted compounds from the intermediate plate were added in duplicate or DMSO (for control wells) at a final concentration of 0.5% DMSO in Opti-MEM. Plates were incubated at 37 °C and 5% CO2 for 2 h. […]

For experiment [4], the target named is T2, LIMK2 (NanoLuc LIMK2 kinase fusion) (Homo sapiens, UniProt P53671).
T2 construct: host or cells: HEK293
It is filed as cell-based. The conditions noted are these: HEK293 cells, 2 h; mean ± SEM. As to the method: as §1, §2

The target in experiment [5] is LIMK1 (LIMK1_330–637, kinase catalytic domain) (Homo sapiens, UniProt P53667). Conditions: 40 nM LIMK1 catalytic domain, 4 μM CFL1, 2 mM ATP; mean ± SEM, at least three experiments unless footnoted; pIC50 greater than 7.7 treat with caution.
The target in experiment [6] is PAK pLIMK2 (PAK-phosphorylated LIMK2) (Homo sapiens, UniProt P53671). The conditions noted are these: 6 nM LIMK2 + 0.2 nM PAK1 kinase domain; mean ± SEM.
Experiment [7] addresses LIMK2 (LIMK2_347–659, kinase catalytic domain) (Homo sapiens, UniProt P53671). The conditions noted are these: 15 nM LIMK2 catalytic domain, 4 μM CFL1, 2 mM ATP; mean ± SEM; pIC50 greater than 8.1 treat with caution.
In experiment [8] the test system is 468 kinases (scanMax panel). Kind of experiment: Eurofins/DiscoverX scanMax panel (KINOMEscan) kinome profile. The experiment is classed as binding. The conditions noted are these: 1000 nM, fraction of kinases bound >50%.

`Nc1nc(NCCNc2ncc(-n3ccnc3)c(-c3ccc(Cl)cc3Cl)n2)ccc1[N+](=O)[O-]` [Compound 14]: the “RapidFire pIC50 PAK pLIMK1” value in experiment [1] is less than 5. Also, the IC50 in experiment [2] was greater than 10000 nM. Besides, the “NanoBRET pIC50 LIMK1” value in experiment [3] is recorded as less than 5. Also, the “NanoBRET pIC50 LIMK2” value in experiment [4] is less than 5. In addition, the “RapidFire pIC50 LIMK1” value in experiment [5] is less than 5. The “RapidFire pIC50 PAK pLIMK2” value in experiment [6] is less than 5. The “RapidFire pIC50 LIMK2” value in experiment [7] was less than 5.

`Cc1c[nH]c2ncnc(-c3ccc(NC(=O)N(CCO)c4ccccc4)cc3)c12` [Compound 8]: in experiment [8], the “kinome S50” value was 0.07 (468, 1000 nM). Moreover, the IC50 in experiment [2] is 468 nM. In experiment [6], the “RapidFire pIC50 PAK pLIMK2” value is recorded as less than 5. The “RapidFire pIC50 LIMK2” value in experiment [7] amounted to 5.72 ± 0.27.
